{"source": "ChEMBL document CHEMBL1130598", "about": "“Pyrroles and other heterocycles as inhibitors of p38 kinase” (Bioorg Med Chem Lett, 1998)", "organism": "Rattus norvegicus", "test": "animal or person", "conditions": "intraduodenal, read-out: Inhibition"}
{"smiles": "COc1ccc2c(c1)c(CC(=O)O)c(C)n2C(=O)c1ccc(Cl)cc1", "note": "[INDOMETHACIN]", "values": [{"measurement": "inhibition in vivo at 1 mg/kg", "value": 79, "unit": "%"}]}
